In paper PMC12363342, “Investigating the N-terminal linker histone H1 subtypes as substrates for JmjC lysine demethylases” (RSC Chemical Biology, 2025):

Assays:
[1] = test system: KDM3B; assay: LC-MS demethylation activity assay, KDM3B; type: biochemical, human; settings: 2 μM KDM, 10 μM H1/H3 peptide, 10 μM FAS, 100 μM LAA, 20 μM 2OG, 50 mM HEPES pH 7.5, 2 h, room temperature, T (tri-) initial methylation state
Description: (§1) The substrate specificity of JmjC KDMs for H1 was examined using liquid chromatography coupled to mass spectrometry (LC-MS) assays. The H1 peptides (10 μM) were incubated with the recombinant KDM (2 μM) in HEPES buffer at pH 7.5 at room temperature for 2 h, in the presence of ferrous(II) ammonium sulfate (FAS, 10 μM), sodium ascorbate (LAA, 100 μM) and 2OG (20 μM), and then quenched with formic acid. N^ε-Methylated H3K9 and H3K36 peptides were used as positive controls (Fig. 3–5 and Fig. S2–S6).[26]
(§2) The catalytic domains of the JmjC KDMs used were recombinantly produced as reported in either Escherichia coli (KDM4AM1-L359,[38] KDM4DM1-L359,[39] KDM4EM1-R336,[30] KDM6BD1141–E1590[40] and KDM3CL2157-L2500) or Sf9 cells (KDM3AT515–S1317, KDM3B882–1761, and KDM5DM1-D775) as N-terminally His6-tagged proteins. […] To produce proteins, DNA sequences encoding for KDM3A, KDM3B and KDM5D were inserted into the pFB-LIC vector, containing a TEV-protease cleavable N-terminal 6x-histidine tag via ligation independent cloning (LIC). The resultant plasmids were transformed into baculovirus and Sf9 cells ([…]) which were infected with the virus stock. The cells were grown at 27 °C and 90 rpm for 70 h. Cells were then harvested and suspended in 100 mL of lysis buffer (50 mM HEPES-NaOH, pH 7.4, 500 mM NaCl, 20 mM imidazole, 0.5 mM Tris (2-carboxyethyl)phosphine (TCEP), 5% (v/v) glycerol). […] The supernatant was loaded onto a Ni-NTA gravity column, washed with 10 column volume of lysis buffer and eluted using the elution buffer (50 mM HEPES-NaOH, pH 7.4, 500 mM NaCl, 300 mM imidazole, 0.5 mM TCEP, 5% (v/v) glycerol). The eluted protein was further purified using S200 gel filtration column chromatography (50 mM HEPES-NaOH, pH 7.4, 150 mM NaCl, 0.5 mM TCEP and 5% glycerol). Protein purity was analysed by SDS-PAGE and further confirmed by mass spectrometry. Selected fractions were pooled, concentrated and stored at −80 °C.
(§3) All reagents were purchased from Sigma Aldrich and were of the highest grade available. Ferrous(II) ammonium sulfate (FAS) solutions were prepared freshly by dissolving FAS to 400 mM in 20 mM HCl with subsequent dilution to 1 mM using deionized water. Fresh 2OG (10 mM) and LAA (50 mM) solutions were prepared by dissolving the solids in deionised water. All enzyme reactions were performed in 384-well plates (Greiner Bio-One) with a final reaction volume of 50 μL. Substrate mixtures contained 50 mM HEPES pH 7.5, LAA (100 μM), FAS (10 μM), 2OG (20 μM) and an H1 isoform peptide (10 μM). Reactions were initiated by the addition of enzyme to a final concentration of 2.0 μM. After 2 h, the reactions were stopped by the addition of 5 μL of 10% (v/v) LC-MS grade formic acid (Fisher Scientific) to a final concentration of 1% (v/v). […]

[2] = test system: KDM3C; assay: LC-MS demethylation activity assay, KDM3C; type: biochemical, human; settings: 2 μM KDM, 10 μM H1/H3 peptide, 10 μM FAS, 100 μM LAA, 20 μM 2OG, 50 mM HEPES pH 7.5, 2 h, room temperature, T (tri-) initial methylation state
Description: as §1, §2, §3

[3] = molecular target: T1, KDM4E (Homo sapiens, UniProt B2RXH2); assay: LC-MS demethylation activity assay, KDM4E; type: biochemical; settings: room temperature
T1 construct: KDM4DM1-L359,[39]; KDM4EM1-R336,[30]; His6 (N); made in house; host or cells: Escherichia coli
T1 sequence (B2RXH2 1-336): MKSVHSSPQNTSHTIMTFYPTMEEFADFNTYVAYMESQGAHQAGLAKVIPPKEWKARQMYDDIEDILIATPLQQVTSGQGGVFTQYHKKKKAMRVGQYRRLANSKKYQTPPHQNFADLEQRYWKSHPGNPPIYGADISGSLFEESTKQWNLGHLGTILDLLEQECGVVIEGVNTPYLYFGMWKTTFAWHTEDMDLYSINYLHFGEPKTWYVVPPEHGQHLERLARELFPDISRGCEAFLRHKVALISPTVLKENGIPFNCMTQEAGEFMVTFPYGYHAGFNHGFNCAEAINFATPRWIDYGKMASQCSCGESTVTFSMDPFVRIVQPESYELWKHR
Description: as §1, §2
All reagents were purchased from Sigma Aldrich and were of the highest grade available. Ferrous(II) ammonium sulfate (FAS) solutions were prepared freshly by dissolving FAS to 400 mM in 20 mM HCl with subsequent dilution to 1 mM using deionized water. Fresh 2OG (10 mM) and LAA (50 mM) solutions were prepared by dissolving the solids in deionised water. All enzyme reactions were performed in 384-well plates (Greiner Bio-One) with a final reaction volume of 50 μL. Substrate mixtures contained 50 mM HEPES pH 7.5, LAA (100 μM), FAS (10 μM), 2OG (20 μM) and an H1 isoform peptide (10 μM). Reactions were initiated by the addition of enzyme to a final concentration of 2.0 μM. After 2 h, the reactions were stopped by the addition of 5 μL of 10% (v/v) LC-MS grade formic acid (Fisher Scientific) to a final concentration of 1% (v/v). Product analyses were performed by liquid chromatography-mass spectrometry (LC-MS) using an Agilent 1290 infinity II LC system equipped with an Agilent 1290 multisampler and an Agilent 1290 high speed pump and connected to an Agilent 6550 accurate mass iFunnel quadrupole time of flight (Q-TOF) mass spectrometer. 1 μL of the reaction mixture was injected onto a 1.8 μm × 2.1 × 50 mm ZORBAX RRHD Eclipse Plus C18 column (Agilent). Solvent A consisted of HPLC grade water containing 0.1% (v/v) formic acid and solvent B consisted of MeCN containing 0.1% (v/v) formic acid. Peptides were separated using a stepwise gradient (0 min – 95% solvent A, 1.0 min – 80% solvent A, 3.0 min – 45% solvent A, 4.0 min – 45% solvent A, 5.0 min – 0% solvent A, 6.0 min – 0% solvent A, 7.0 min – 95% solvent A). This was followed by a 3 min post-run with 95% solvent A to re-equilibrate the column. All flow rates were 0.2 mL min^−1.

[4] = test system: KDM5D; assay: LC-MS demethylation activity assay, KDM5D; type: biochemical, human; settings: 2 μM KDM, 10 μM H1/H3 peptide, 10 μM FAS, 100 μM LAA, 20 μM 2OG, 50 mM HEPES pH 7.5, 2 h, room temperature, T (tri-) initial methylation state
Description: as §1, §2, §3

[5] = test system: KDM6B; assay: LC-MS demethylation activity assay, KDM6B; type: biochemical, human; settings: 2 μM KDM, 10 μM H1/H3 peptide, 10 μM FAS, 100 μM LAA, 20 μM 2OG, 50 mM HEPES pH 7.5, 2 h, room temperature, T (tri-) initial methylation state
Description: as §1, §2, §3

[6] = 2 μM KDM4E, 10 μM peptide, standard conditions, 2 h

In the case of “ARTKQTARKme3STGGKA [Peptide H3K9me3, histone H3 residues 1-15 peptide with tri-methylated K9; commercial positive control, reference compound]”, the “KDM3B demethylation activity, T” value [1] is reported as “● [red]”, the “KDM3C demethylation activity, T” value [2] is reported as “● [red]” and the “di-methylated product formed by KDM4E” value [3, 6] is reported as roughly 25%. The “mono-methylated product formed by KDM4E” value [3, 6] was roughly 29%, the “KDM4E demethylation activity, T” value ([3]; 2 μM KDM, 10 μM H1/H3 peptide, 10 μM FAS, 100 μM LAA, 20 μM 2OG, 50 mM HEPES pH 7.5, 2 h, T (tri-) initial methylation state) was “● [green] (green dots indicate good demethylation (>50% conversion))” and the “KDM5D demethylation activity, T” value [4] was “● [red]”. For the same substance, the “KDM6B demethylation activity, T” value [5] was “● [red]”.
